Values quoted from earlier work, collected in US5866346A (priority 1997, dated 1999).

Sequences of proteins named here, by UniProt entry; tags and fusion partners are left off. A change or cut given only in a name is not applied to a line headed by its entry.
UniProt P33534: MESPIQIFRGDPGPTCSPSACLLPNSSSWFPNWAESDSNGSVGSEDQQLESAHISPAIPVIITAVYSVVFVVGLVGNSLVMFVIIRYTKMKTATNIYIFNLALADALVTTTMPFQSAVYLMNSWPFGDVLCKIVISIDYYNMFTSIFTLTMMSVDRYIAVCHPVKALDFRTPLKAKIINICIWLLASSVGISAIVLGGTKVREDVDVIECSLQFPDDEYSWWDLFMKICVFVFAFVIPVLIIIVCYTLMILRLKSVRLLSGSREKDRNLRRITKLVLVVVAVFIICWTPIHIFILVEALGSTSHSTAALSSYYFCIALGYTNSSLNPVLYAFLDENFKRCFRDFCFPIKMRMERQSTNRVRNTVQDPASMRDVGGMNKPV

Target: kappa opioid receptor (KOR) (Mus musculus, UniProt P33534)
Settings: read-out: KOR (Ki) Mouse (23); cited from earlier work

In the case of `CC[C@H](C)[C@H](NC(=O)[C@H](CCCNC(=N)N)NC(=O)[C@H](CCCNC(=N)N)NC(=O)[C@H](CC(C)C)NC(=O)[C@H](Cc1ccccc1)NC(=O)CNC(=O)CNC(=O)[C@@H](N)Cc1ccc(O)cc1)C(=O)N[C@@H](CCCNC(=N)N)C(=O)N1CCC[C@H]1C(=O)N[C@@H](CCCCN)C(=O)N[C@@H](CC(C)C)C(=O)N[C@@H](CCCCN)C(=O)N[C@@H](Cc1c[nH]c2ccccc12)C(=O)N[C@@H](CC(=O)O)C(=O)N[C@@H](CC(N)=O)C(=O)N[C@@H](CCC(N)=O)C(=O)O` [dyn A, dynorphin A], the Ki is given as 0.5 nM.
